From patent publication US9303033B2, “Pyrazolopyrimidines and related heterocycles as CK2 inhibitors” (SENHWA BIOSCIENCES, INC., priority 2009, dated 2016) come the findings set out here.

Protein sequences, listed by entry. Tags and fused reporters are not part of them. Lines headed by an entry give the natural chain unless they say otherwise; changes in a name come on top.
UniProt P11309, whole entry: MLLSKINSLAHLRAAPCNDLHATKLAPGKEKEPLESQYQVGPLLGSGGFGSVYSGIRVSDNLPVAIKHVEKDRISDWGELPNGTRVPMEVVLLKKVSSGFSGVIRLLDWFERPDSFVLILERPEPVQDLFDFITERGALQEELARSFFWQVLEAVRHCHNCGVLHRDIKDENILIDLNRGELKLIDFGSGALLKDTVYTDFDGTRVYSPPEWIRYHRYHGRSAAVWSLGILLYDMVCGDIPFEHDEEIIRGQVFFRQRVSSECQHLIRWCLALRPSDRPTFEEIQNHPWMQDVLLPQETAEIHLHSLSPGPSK
UniProt Q9P1W9: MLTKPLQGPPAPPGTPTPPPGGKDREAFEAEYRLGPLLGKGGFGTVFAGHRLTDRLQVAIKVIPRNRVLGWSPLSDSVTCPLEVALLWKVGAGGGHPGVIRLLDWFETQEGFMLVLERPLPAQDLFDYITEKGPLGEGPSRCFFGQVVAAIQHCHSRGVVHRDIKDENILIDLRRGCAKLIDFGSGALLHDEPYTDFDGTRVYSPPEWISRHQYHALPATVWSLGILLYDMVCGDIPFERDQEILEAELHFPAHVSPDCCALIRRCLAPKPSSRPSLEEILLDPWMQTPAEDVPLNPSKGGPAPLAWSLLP

One experiment addresses recombinant PIM-1 (Homo sapiens (Human), UniProt P11309). Nature of the experiment: PIM-1 assay (33P-ATP filter binding). The following applies: read-out: PIM1: IC50 (30 μM ATP). In kind it is biochemical. The method, then: The following procedure was used to assay the PIM-1 kinase activity of compounds of the invention. Other methods for assaying PIM-1 and other PIM kinases, as well as methods to assay for activity against the various kinases for the kinase panel mentioned in FIGS. 1 and 2, are known in the art.
In a final reaction volume of 50 ul, recombinant PIM-1 (1 ng) was incubated with 12 mM MOPS pH 7.0, 0.4 mM EDTA, glycerol 1%, brij 35 0.002%, 2-mercaptoethanol 0.02%, BSA 0.2 mg/ml, 100 uM […] (SEQ ID NO.: 5), 10 mM MgAcetate, 15 uM ATP, [γ-^33P-ATP] (specific activity approx. 500 cpm/pmol), DMSO 4% and test inhibitor compound at the required concentration. The reaction was initiated by the addition of the Magnesium ATP mixture. After 40 min incubation at 23° C., the reactions were quenched by the addition of 100 ul 0.75% Phosphoric acid, and the labeled peptide collected by filtration through a phosphocellulose filter plate. The plate was washed 4 times with 0.075% phosphoric acid (100 ul per well) and then, after the addition of scintillation fluid (20 ul per well), the counts were measured by a scintillation counter.

The target of another experiment is recombinant human PIM2 (Homo sapiens (Human), UniProt Q9P1W9). Briefly: PIM-2 assay (33P-ATP filter binding). To be noted: PIM2: IC50 (5 μM ATP). The experiment is classed as biochemical.

On to `CCN(CC)CCNc1cc(NC2CC2)n2ncc(/C=C3\SC(=O)NC3=O)c2n1` [Example O3], for which the concentration for half-maximal inhibition (IC50) at recombinant PIM-1 was 1250 nM.

Regarding `O=C1NC(=O)/C(=C/c2cnn3c(NC4CCNC4)cc(Nc4cccc(Cl)c4)nc23)N1` (centres unmarked) [Example P6], the concentration for half-maximal inhibition (IC50) at recombinant human PIM2 is 701 nM.
